Assay results reported in US12565504B2, “Spirocyclic O-glycoprotein-2-acetamido-2-deoxy-3-d-glucopyranosidase inhibitors” (BIOGEN MA INC., priority 2019, dated 2026).

Assays:
[1] = system: MDR1-MDCK cell monolayers; assay: MDR1-MDCK Efflux Ratio Assay; conditions: MDR1-MDCK cells, 2 hr, pH 7.4
[2] = Rat Liver Microsome Stability Assay; type: in vitro ADME; conditions: rat liver microsomes 0.5 mg/mL, compound 1 μM; Qh 55 mL/minute/kg

MDR1-MDCK Efflux Ratio (B-A/A-B) [1]: 11
RLM % Qh (%) [2]: 72%
SMILES: CC(=O)Nc1nc(F)c(CN2C[C@]3(Cc4ncccc4O3)C[C@@H]2C)s1
